Among the data in patent publication US8211916B2 are IC50 values, retold here.

Chains of the proteins cited; added tags and fusions are not shown. Residues count along the entry.
UniProt P31652, whole entry: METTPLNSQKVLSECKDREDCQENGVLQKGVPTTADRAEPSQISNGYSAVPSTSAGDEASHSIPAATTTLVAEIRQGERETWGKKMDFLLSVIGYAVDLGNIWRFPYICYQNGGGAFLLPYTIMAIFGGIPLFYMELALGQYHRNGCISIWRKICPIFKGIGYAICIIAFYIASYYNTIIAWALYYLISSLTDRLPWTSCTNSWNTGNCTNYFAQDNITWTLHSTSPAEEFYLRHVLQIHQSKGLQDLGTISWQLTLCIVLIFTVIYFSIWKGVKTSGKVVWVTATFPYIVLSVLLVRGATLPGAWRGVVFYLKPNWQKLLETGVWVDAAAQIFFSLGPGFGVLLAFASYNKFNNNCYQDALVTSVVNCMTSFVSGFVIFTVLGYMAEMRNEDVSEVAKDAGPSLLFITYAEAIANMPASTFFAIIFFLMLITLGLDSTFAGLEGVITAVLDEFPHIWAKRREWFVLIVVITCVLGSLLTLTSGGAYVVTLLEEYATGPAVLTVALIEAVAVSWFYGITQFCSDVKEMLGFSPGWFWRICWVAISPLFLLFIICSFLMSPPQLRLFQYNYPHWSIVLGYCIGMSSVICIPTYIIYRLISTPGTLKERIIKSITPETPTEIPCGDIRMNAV
UniProt Q63380, 1-617: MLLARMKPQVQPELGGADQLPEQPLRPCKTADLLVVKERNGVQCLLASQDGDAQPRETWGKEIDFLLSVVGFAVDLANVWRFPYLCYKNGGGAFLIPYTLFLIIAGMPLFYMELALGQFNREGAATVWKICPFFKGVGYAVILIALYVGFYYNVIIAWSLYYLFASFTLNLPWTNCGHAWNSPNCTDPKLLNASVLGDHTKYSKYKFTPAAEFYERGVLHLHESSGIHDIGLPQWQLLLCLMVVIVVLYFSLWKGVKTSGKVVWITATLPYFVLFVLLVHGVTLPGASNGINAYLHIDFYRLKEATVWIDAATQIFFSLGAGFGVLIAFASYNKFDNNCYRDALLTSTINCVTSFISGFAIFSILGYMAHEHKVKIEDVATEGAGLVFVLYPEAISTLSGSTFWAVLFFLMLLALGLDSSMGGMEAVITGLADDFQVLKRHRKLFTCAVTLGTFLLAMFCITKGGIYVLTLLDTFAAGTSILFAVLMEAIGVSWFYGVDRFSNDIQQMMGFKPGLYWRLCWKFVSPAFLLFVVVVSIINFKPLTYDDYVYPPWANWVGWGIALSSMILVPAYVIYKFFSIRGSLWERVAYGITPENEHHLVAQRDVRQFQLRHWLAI

One assay deals with T1, rat SERT (Rattus norvegicus, UniProt P31652).
T1 construct: from tissue; host or cells: rat striatum (membranes)
The experiment in a line: Rat SERT binding, [3H]citalopram, striatal membranes.

Assay [1] concerns the target T2, Norepinephrine (NET) Transporter (Rattus norvegicus, UniProt Q63380).
T2 construct: and norepinephrine Transporters in Rat Striatum; from tissue
The experiment in a line: NET binding, [3H]nisoxetine.

As a reminder, the IC50 is the concentration at which inhibition is half-maximal. Regarding `COC(=O)[C@H]1[C@@H](OC(=O)c2ccccc2)C[C@@H]2CC[C@H]1N2C` [Cocaine, reference compound], the IC50 at rat SERT is 737 ± 160 nM; in assay [1], 3530 nM.
